This experiment has as its target PDE3 (Homo sapiens, UniProt Q14432). The experiment can be described thus: biochemical. As to conditions: read-out: enzyme inhibitory activity for PDE3. As for the experimental part: PDE activities were determined by the method of Hidaka and Asano (Hidaka H, Asano T., Biochim Biophys Acta., 429, 485-497, 1976). Washed human platelets were used for both PDE3 and PDE5 analyses, and human U937 cells for PDE4. Purified protein containing PDE3, PDE4, or PDE5 enzyme was resuspended in 50 mM Tris-HCl containing 5 mM MgCl2 (pH 7.5). […] After 20 minutes at 37° C., the samples were heated to 100° C. for 2 minutes. Ophiophagis Hannah snake venom (10 mg/mL, […]) was then added and incubated at 37° C. for 10 minutes to convert the 5′-GMP and 5′-AMP to the uncharged nucleosides guanosine and adenosine, respectively. An ion-exchange resin ([…]) was added to bind all unconverted cGMP or cAMP. After centrifuging, the supernatant was removed for determination of radiolabeled guanosine or adenosine by a liquid scintillation counter.

Chains of the proteins cited; added tags and fusions are not shown. Lines headed by an entry give the natural chain unless they say otherwise; changes in a name come on top.
UniProt Q14432: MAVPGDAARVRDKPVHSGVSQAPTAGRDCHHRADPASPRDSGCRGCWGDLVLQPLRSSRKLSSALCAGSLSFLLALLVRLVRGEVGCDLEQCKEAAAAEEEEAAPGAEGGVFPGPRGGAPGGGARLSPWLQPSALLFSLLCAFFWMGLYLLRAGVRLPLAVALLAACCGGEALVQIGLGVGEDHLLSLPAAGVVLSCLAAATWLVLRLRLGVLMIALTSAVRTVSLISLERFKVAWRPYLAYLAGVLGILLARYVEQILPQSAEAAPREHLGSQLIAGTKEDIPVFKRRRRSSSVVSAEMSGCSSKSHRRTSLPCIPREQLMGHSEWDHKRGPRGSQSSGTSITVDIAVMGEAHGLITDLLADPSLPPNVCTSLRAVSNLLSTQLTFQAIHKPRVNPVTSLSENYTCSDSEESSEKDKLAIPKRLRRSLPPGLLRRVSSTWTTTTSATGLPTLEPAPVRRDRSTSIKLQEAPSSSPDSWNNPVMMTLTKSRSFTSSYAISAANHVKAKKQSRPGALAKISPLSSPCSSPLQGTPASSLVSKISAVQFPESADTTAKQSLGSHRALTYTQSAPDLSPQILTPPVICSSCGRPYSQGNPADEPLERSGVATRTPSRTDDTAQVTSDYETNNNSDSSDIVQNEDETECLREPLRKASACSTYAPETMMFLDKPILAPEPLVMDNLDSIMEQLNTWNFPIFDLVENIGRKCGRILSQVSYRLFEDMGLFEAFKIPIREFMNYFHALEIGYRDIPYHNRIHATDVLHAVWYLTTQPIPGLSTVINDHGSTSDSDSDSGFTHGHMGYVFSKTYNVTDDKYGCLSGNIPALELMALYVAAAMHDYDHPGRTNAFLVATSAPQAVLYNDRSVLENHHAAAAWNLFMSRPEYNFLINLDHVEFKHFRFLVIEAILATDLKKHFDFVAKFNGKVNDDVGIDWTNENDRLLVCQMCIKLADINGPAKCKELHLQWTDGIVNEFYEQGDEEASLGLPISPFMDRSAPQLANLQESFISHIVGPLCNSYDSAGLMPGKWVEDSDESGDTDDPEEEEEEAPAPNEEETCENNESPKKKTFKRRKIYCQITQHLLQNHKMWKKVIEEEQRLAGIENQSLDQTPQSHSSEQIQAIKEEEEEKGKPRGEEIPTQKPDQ

`Cn1c(=O)c2[nH]cnc2n(C)c1=O` [theophylline]: the inhibition at 10000 µM is 8 ± 1%.

These data come from patent publication US20080064705A1, “Theophylline-based nitophenylpiperazine derivatives for enhancing aortic smooth muscle relaxation” (KAOHSIUNG MEDICAL UNIVERSITY, priority 2006, published 2008).
